How the values were obtained:
Liver = assay: Expression level of luciferase mRNA delivered by tail vein injection in tissues, IVIS imaging; details: luciferase mRNA LNP, tail vein injection 0.5 mg/kg, 6 h after administration; comparative compound 1 taken as a unit 1
Protocol: (§1) Lipid nanoparticle compositions in which a luciferase-expressing mRNA (luciferase, GenBank: MN728548.1) was encapsulated (prepared according to the preparation method in Example 5) were administered to female Balb/c mice aged 6-8 weeks by tail vein injection at a dose of 0.5 mg/kg. Six hours after administration, the luciferase substrate (D-luciferin potassium salt, Cat. No. abs42075819) was injected intraperitoneally into each mouse. The mice were dissected, their livers and spleens were collected and photographed using an IVIS small-animal optical in vivo imaging system (PerkinElmer), and the fluorescence intensity of each tissue was measured. For the lipid nanoparticle composition corresponding to each compound, at least 3 biological replicates were set, and the mean fluorescence intensity was calculated. The fluorescence intensity indicates the level of luciferase protein expression. The relative fluorescence intensities, i.e., relative protein expression levels, of compounds 1, 2, and 3 and comparative compounds 1 and 3 were calculated with the fluorescence intensity of the lipid nanoparticle composition corresponding to comparative compound 1 taken as a unit 1. For example, the ratio of the tissue fluorescence intensity of compound 1 to the tissue fluorescence intensity of comparative compound 1 is the relative protein expression level of compound 1.
(§2) 10 and 11, the relative protein expression levels were calculated using the measured fluorescence intensities corresponding to the spleens and livers of the mice that were photographed using an IVIS small-animal optical in vivo imaging system. They measured how efficiently the lipid nanoparticle compositions delivered mRNA in cells of different tissues. In FIGs. […]

Spleen = assay: as above; details: luciferase mRNA LNP, tail vein injection 0.5 mg/kg, 6 h after administration; comparative compound 1 taken as a unit 1
Protocol: as §1, §2

[1] = system: A549 cells (human non-small cell lung cancer cells); assay: Non-immune cell in vitro transfection efficiency (luciferase mRNA LNP, fluorescence intensity); details: for Mean fluorescence intensity (p/s): LNP composition with luciferase mRNA, 24 h of incubation; for Relative fluorescence intensity: comparative compound 2 taken as a unit 1
Protocol: (§3) Non-immune cells such as A549 cells (human non-small cell lung cancer cells) and immune cells such as Jurkat cells (human T cells) (from ATCC) were cultured in 96-well plates, respectively. The lipid nanoparticle compositions in which the luciferase mRNA (luciferase, GenBank: MN728548.1) was encapsulated were added to the cell well plates. After 24 h of incubation, the luciferase substrate (D-luciferin potassium salt, Cat. No. abs42075819) was added, and the fluorescence intensity was measured using a microplate reader. The fluorescence intensity indicates the level of luciferase protein expression, i.e., the delivery efficiency of the lipid nanoparticles corresponding to the compounds on different cells.

[2] = Liposome encapsulation efficiency, Quant-iT RiboGreen RNA assay kit; details: lipid nanoparticle composition encapsulating luciferase mRNA
Protocol: (§4) Compounds 1, 2, and 3 and comparative compounds 1, 2, and 3 were each dissolved in an ethanol solution, and each of the resulting solutions was mixed with solutions of DSPC, cholesterol, and DMG-PEG in ethanol in a molar percent (mol %) ratio of 50:10:38.5:1.5 to prepare an ethanol lipid solution. mRNA (luciferase, GenBank: MN728548.1) was dissolved in a 50 mM acetic acid buffer (pH 5) to prepare an aqueous mRNA solution (0.2 mg/mL). Each of the ethanol lipid solutions was mixed with the aqueous mRNA solution by microfluidics, with the volume ratio of the ethanol phase to the aqueous phase being 1:3 and the weight ratio of total lipids to mRNA being about 20:1, to prepare liposomes. Ethanol was removed by dialysis against a 20 mM Tris solution (pH 7.5). Finally, each solution was exchanged into a 20 mM Tris, 8% sucrose solution, and the resulting solutions were cryopreserved to obtain lipid nanoparticle compositions in which mRNA was encapsulated.
The liposome encapsulation efficiency was determined using a Quant-iT RiboGreen RNA assay kit.

[3] = Size and polydispersity index of lipid nanoparticles by dynamic light scattering (Malvern Zetasizer Pro); details: lipid nanoparticle composition (lipid:DSPC:cholesterol:DMG-PEG 50:10:38.5:1.5) encapsulating luciferase mRNA
Protocol: as §4
The size and polydispersity index (PDI) of the lipid nanoparticles were determined using a Malvern Zetasizer Pro in a 173° backscatter detection mode and dynamic light scattering.

Macrophages = assay: In vivo Cre mRNA delivery efficiency in immune cells after tail vein injection, flow cytometry of spleen cells; details: Cre mRNA LNP, tail vein injection 0.5 mg/kg, 48 h after administration, tdTomato positive
Protocol: (§5) Lipid nanoparticle compositions in which a Cre-expressing recombinant mRNA (GenBank: JQ033384.1) was encapsulated (prepared according to the preparation method in Example 5) were administered to male CAG-LSL-tdTomato model mice aged 6-8 weeks (Shanghai Model Organisms Center, Inc.) by tail vein injection at a dose of 0.5 mg/kg. If the Cre mRNA was delivered into cells in the mice, it would edit the genes of the mice to enable the expression of the tdTomato fluorescent protein. Therefore, the in vivo delivery efficiency of the lipid nanoparticle compositions in different cells can be determined by detecting fluorescence signals of the tdTomato protein and analyzing the proportion of positive cells. Forty-eight hours after administration, the mice were dissected, and their spleens were collected and ground. After lysis of red blood cells, single-cell suspensions were prepared, with cells resuspended in a PBS buffer (pH 7.4). Different immune cells were labeled with fluorescently labeled antibodies (BioLegend), respectively. The cells were divided into populations using a flow cytometer, and the proportion of positive cells (with tdTomato fluorescence signals) in a corresponding cell population was determined, reflecting the delivery efficiency of the nanoparticle lipid compositions in the corresponding immune cells. The blank control group was injected with an equal volume of PBS.
(§6) For the lipid nanoparticle composition corresponding to each compound, at least 3 biological replicates were set, and the mean percentage was calculated. 5 to 9.
(§7) With the lipid nanoparticle composition corresponding to comparative compound 1 and the blank control group as controls, the in vivo mRNA delivery efficiency of the tail vein injection of the lipid nanoparticle composition corresponding to compound 1 into mice in immune cells was determined. Table 4. In vivo delivery efficiency in immune cells

NK cells = assay: as above; details: Cre mRNA LNP, tail vein injection 0.5 mg/kg, 48 h after administration, tdTomato positive
Protocol: as §5, §6, §7

T cells = assay: as above; details: Cre mRNA LNP, tail vein injection 0.5 mg/kg, 48 h after administration, tdTomato positive
Protocol: as §5, §6, §7

Monocytes = assay: as above; details: Cre mRNA LNP, tail vein injection 0.5 mg/kg, 48 h after administration, tdTomato positive
Protocol: as §5, §6, §7

Dendritic cells = assay: as above; details: Cre mRNA LNP, tail vein injection 0.5 mg/kg, 48 h after administration, tdTomato positive
Protocol: as §5, §6, §7

[4] = system: Jurkat cells (human T cells); assay: Immune cell in vitro transfection efficiency (luciferase mRNA LNP, fluorescence intensity); details: for Mean fluorescence intensity (p/s) / Relative fluorescence intensity: immune cells (Jurkat); for Mean fluorescence intensity (p/s): LNP composition with luciferase mRNA, 24 h of incubation; for Relative fluorescence intensity: comparative compound 2 taken as a unit 1; for Fluorescence intensity relative to that of the lipid nanoparticle composition corresponding to comparative compound 2: immune cells
Protocol: as §3

| SMILES | Relative protein expression level Liver (Liver) | Relative protein expression level Spleen (Spleen) | Mean fluorescence intensity (p/s) [1] [p/s] | Relative fluorescence intensity [1] | Encapsulation efficiency (%) [2] [%] | PDI [3] | Size (nm) [3] [nm] | Proportion of positive cells (%) (Macrophages) | Proportion of positive cells (%) (NK cells) | Proportion of positive cells (%) (T cells) | Proportion of positive cells (%) (Monocytes) | Proportion of positive cells (%) (Dendritic cells) | Mean fluorescence intensity (p/s) [4] [p/s] | Relative fluorescence intensity [4] | Fluorescence intensity relative to that of the lipid nanoparticle composition corresponding to comparative compound 2 [4] [times] |
| --- | --- | --- | --- | --- | --- | --- | --- | --- | --- | --- | --- | --- | --- | --- | --- |
| CCCCCCCCC(CCCCCC)C(=O)OCCCCCCN(CCCCCCOC(=O)C(CCCCCC)CCCCCCCC)CCCn1ccnc1 (stereo not drawn) | 1.0 | 1.0 | 3.00E+04 | 1.46 | 97.4 | 0.19 | 69.7 | 5.9 | 5.0 | 1.6 | 12.3 | 4.2 | 8.55E+03 | 3.07 |  |
| CCCCCCCCC(CC)OC(=O)CCCCCCCN(CCCCCOCC(=O)OC(CCCCCCCC)CCCCCCCC)CCCn1ccnc1 (stereo not drawn) | 1.4 | 2.0 | 3.02E+04 | 1.46 | 99.4 | 0.10 | 78.1 |  |  |  |  |  | 3.72E+04 | 13.38 | 13 |
| CCCCCCCCC(CCCCCC)C(=O)OCCCCCCN(CCCOCCOC(=O)C(CCCCCC)CCCCCCCC)CCCn1ccnc1 (stereo not drawn) | 0.6 | 1.7 | 2.06E+04 | 1.00 | 95.5 | 0.07 | 79.4 | 10.2 | 14.1 | 2.5 | 16.8 | 7.7 | 2.59E+04 | 9.33 | 9 |
